# Experimental data from PubChem BioAssay AID588478 (ICCB-Longwood Screening Facility, Harvard Medical School, 2011).
# Sequences of proteins named here, by UniProt entry; tags and fusion partners are left off.
# UniProt Q9Y5K5, whole entry: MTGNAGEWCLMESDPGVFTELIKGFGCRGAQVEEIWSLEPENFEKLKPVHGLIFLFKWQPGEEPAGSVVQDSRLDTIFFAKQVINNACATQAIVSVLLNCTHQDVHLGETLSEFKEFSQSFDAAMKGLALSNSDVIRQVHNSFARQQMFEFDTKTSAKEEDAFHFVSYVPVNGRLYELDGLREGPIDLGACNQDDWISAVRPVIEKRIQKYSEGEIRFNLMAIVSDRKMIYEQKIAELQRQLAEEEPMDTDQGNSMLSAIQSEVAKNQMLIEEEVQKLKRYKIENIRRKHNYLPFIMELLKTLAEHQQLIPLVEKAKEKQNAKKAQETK
# The list shows a part of the results, in another mix than the full data. Some results for these compounds are left out of this collection, so the calls shown say nothing about other tests. Activity calls are given as the source filed them.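 The calls were made as follows: active = mean inhibition over replicate wells above about 20% (limit read from the data); inactive = the rest.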
# Target: Ubiquitin carboxyl-terminal hydrolase isozyme L5 (Homo sapiens) (UniProt Q9Y5K5)
# Assay: proteasome-bound UCH37 DUB activity blockers – biochemical, Ub-AMC cleavage, fluorescence, primary screen (AID 588478);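 also: 0% = compound-free wells with enzyme and 100% = wells lacking proteasome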
# Details: purified proteasome/UCH37, Ub-AMC cleavage fluorescence; active compounds read high; concentration not given here
# In short: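 Material: Human UCH37 enzyme supplied as purified proteasome complex | Schedule: 30 min compound-proteasome preincubation then 25 min substrate reaction, room temperature | Detection: AMC fluorescence from Ub-AMC cleavage, excitation 355 nm, emission 460 nm | Benchmarks: Wells without proteasome as full block, compound-free enzyme plus substrate as uninhibited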
row,SMILES,inhibition
1,CN(C)C1CCCC1OC(=O)C(O)(c1ccccc1)c1ccccc1 (stereo not drawn),inactive: 4.18%
2,CN(C)c1ccc(C(=O)NCC2(N(C)C)CCCCC2)cc1,inactive: -0.136%
3,Cc1ccccc1C(=O)NCC1(N2CCCCC2)CCCCC1,inactive: 0.569%
4,CN(C)CCOC(=O)C(O)(c1ccccc1)C1CCCCC1 (stereo not drawn),inactive: -0.715%
5,O=C(NCC1(N2CCCCC2)CCCCC1)c1cc(F)c(F)cc1Cl,inactive: 4.33%
6,O=C(NCC1(N2CCCCC2)CCCCC1)c1cccc(Br)c1,inactive: -0.802%
7,Cc1cc(C(=O)NCC2(N3CCCCC3)CCCCC2)ccc1[N+](=O)[O-],inactive: 5.61%
8,CCN1CCCC(OC(=O)C2(O)c3ccccc3C=Cc3ccccc32)C1 (stereo not drawn),inactive: -0.364%
9,COc1ccc(C(=O)NCC2(N(C)C)CCCCC2)cc1,inactive: 4.98%
10,O=C(NCC1(N2CCCCC2)CCCCC1)c1cc([N+](=O)[O-])ccc1Cl,inactive: 5.25%
11,CN1[C@@H]2CC[C@H]1CC(OC(=O)C(O)(c1ccccc1)c1ccccc1)C2 (stereo partly drawn),inactive: 4.7%
12,COc1cc(SC)ccc1C(=O)NCC1(N(C)C)CCCCC1,inactive: -2.02%
13,Cc1ccc(C(=O)NCC2(N3CCCCC3)CCCCC2)cc1,inactive: 0.602%
14,O=C(OC1CN2CCC1CC2)C(CO)(c1ccccc1)c1ccccc1 (stereo not drawn),inactive: 0.0143%
15,COc1ccc(Br)c(C(=O)NCC2(N3CCCCC3)CCCCC2)c1,inactive: 0.453%
16,CN(C)c1cccc(C(=O)NCC2(N(C)C)CCCCC2)c1,inactive: -6.58%
17,O=C(OCCN1CCCC1)C(O)(c1ccccc1)c1ccccc1,inactive: -1.08%
18,CC(C)Oc1ccc(C(=O)NCC2(N(C)C)CCCCC2)cc1,inactive: 0.742%
19,CN(C)C1(CNC(=O)c2ccc(Br)cc2)CCCCC1,inactive: 3.53%
20,COc1cc(C(=O)NCC2(N(C)C)CCCCC2)c([N+](=O)[O-])cc1OC,inactive: 4.4%
21,COc1ccc(Cl)cc1C(=O)NCC1(N(C)C)CCCCC1,inactive: 3.86%
22,COc1cccc(C(=O)NCC2(N3CCCCC3)CCCCC2)c1,inactive: 2.21%
23,O=C(NCC1(N2CCCCC2)CCCCC1)c1cccc(Cl)c1,inactive: 2.09%
